# Most of the hits are listed elsewhere, so they are rarer here than in the full data. Active and inactive are the calls of the source. Calls follow the shape of the full dose curve.
# Amino acid sequences for entries named in this document (tags omitted). A change or cut given only in a name is not applied to a line headed by its entry.
# UniProt P18054: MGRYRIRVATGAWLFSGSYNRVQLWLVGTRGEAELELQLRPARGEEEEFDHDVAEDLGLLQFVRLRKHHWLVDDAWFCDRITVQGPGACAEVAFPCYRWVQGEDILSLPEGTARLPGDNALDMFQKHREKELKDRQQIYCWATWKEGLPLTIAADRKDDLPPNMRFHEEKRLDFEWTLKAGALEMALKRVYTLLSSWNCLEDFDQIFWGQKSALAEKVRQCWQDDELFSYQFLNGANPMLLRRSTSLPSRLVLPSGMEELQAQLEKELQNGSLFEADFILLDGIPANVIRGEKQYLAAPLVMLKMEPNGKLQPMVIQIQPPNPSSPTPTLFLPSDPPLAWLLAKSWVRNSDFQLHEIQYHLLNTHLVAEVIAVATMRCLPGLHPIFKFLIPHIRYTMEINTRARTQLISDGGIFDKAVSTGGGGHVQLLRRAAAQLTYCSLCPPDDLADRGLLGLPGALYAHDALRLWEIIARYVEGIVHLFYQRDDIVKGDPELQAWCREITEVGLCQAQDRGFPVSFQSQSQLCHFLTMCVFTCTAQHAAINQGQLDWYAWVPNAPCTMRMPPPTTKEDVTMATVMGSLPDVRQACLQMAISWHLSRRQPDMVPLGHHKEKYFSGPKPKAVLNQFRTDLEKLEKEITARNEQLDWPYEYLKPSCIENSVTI
# Molecular target: Polyunsaturated fatty acid lipoxygenase ALOX12 (Homo sapiens) (UniProt P18054)
# Assay: Inhibitors of 12-hLO (12-human lipoxygenase): Cuvette-Based Hit Assay for Validation of Followup Compounds
# Details: purified 12-hLO, cuvette absorbance 234 nm
# Procedure: The enzyme activity of 12-hLO was determined by a direct measurement of product formation by monitoring the absorbance at 234 nm in a 2 mL cuvette. IC50 values of inhibitors were obtained by measuring the enzymatic rate at a variety of concentrations (Carroll et al, Segraves et al). This assay was used to validate actives or inconclusive putative inhibitors identified in the primary screen (see related BioAssay AIDs). Assay Provider: Holman, T.R., University of California, Santa Cruz Screening Center PI: Austin, Christopher P. Screening Center: NIH Chemical Genomics Center
# For control experiments, 2 mL of substrate buffer (10 uM arachidonic acid / 25 mM HEPES / 0.01% (v/v) Triton X-100, pH 8.0) was aliquoted in a cuvette with a magnetic stir bar. After equilibrium was ensured, an aliquot of inhibitor solvent was added (DMSO), and equilibrium was once again assured. The reaction was started by adding enzyme to the cuvette and the reaction was followed until completed. The inhibition experiments were performed as above, except the actual inhibitory compound was added instead of vehicle. To achieve an IC50, typically 5 concentrations of the inhibitor were studied. If the inhibitor concentration was constant, then five different reaction volumes were used. […] 3; No change in absorbance ensured. […] 5; No change in absorbance ensured. […]
compound,measurement,value
COc1cccc(CNc2ccc(S(=O)(=O)Nc3nccs3)cc2)c1O,Potency,active: 4.71 µM

# Source: PubChem BioAssay AID493216 (National Center for Advancing Translational Sciences (NCATS), 2011)
